Measured values from patent US20080269348A1, “Novel Arylbicyclo[3.1.0]Hexylamines And Methods And Compositions For Their Preparation And Use” (priority 2006, published 2008).

Sequences of proteins named here, by UniProt entry; tags and fusion partners are left off. Residues count along the entry.
UniProt Q63380, 1-617: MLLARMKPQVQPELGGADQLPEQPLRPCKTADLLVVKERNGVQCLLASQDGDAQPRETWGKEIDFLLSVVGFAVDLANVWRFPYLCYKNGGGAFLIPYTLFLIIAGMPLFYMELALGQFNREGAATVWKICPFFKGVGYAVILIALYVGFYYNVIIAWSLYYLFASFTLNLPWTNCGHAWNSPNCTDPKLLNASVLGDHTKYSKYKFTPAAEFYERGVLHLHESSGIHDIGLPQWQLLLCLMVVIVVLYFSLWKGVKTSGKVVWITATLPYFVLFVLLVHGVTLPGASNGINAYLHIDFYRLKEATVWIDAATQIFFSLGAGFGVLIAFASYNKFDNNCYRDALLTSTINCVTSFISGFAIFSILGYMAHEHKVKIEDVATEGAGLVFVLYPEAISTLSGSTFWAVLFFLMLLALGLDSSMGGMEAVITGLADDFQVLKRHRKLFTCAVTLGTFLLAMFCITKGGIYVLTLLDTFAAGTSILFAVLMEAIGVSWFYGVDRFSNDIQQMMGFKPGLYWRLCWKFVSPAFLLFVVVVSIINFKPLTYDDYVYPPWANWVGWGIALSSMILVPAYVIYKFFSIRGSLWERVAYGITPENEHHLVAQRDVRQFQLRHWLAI
UniProt P31652, whole entry, looked up: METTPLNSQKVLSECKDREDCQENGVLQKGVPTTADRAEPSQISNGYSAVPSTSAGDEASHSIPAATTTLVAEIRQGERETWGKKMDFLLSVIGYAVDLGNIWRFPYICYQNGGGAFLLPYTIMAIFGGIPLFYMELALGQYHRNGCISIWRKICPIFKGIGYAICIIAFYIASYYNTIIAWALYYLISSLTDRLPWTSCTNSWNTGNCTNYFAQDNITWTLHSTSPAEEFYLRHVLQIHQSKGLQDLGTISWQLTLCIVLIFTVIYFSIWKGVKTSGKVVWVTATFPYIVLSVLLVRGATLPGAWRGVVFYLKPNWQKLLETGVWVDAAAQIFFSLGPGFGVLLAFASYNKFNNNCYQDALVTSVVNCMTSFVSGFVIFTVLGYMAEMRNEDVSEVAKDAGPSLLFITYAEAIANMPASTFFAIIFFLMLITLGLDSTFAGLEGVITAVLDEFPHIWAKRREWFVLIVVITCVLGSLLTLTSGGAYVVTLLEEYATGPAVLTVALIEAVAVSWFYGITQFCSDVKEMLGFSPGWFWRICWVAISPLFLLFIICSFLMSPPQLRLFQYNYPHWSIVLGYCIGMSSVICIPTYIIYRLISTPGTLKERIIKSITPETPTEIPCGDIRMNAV

Legend:
[1] = target: norepinephrine (NE) uptake (Rattus norvegicus, UniProt Q63380); test: Inhibition of [3H]NE uptake in rat hypothalamus synaptosomes; format: biochemical; settings: read-out: Uptake IC50 (nM) NE
[2] = target: serotonin (5-HT) uptake (Rattus norvegicus, UniProt P31652); settings: read-out: Uptake IC50 (nM) 5-HT; whole brain synaptosomes

Structure (SMILES): NC1C[C@H]2C[C@]2(c2ccc(Cl)c(Cl)c2)C1 (some centres unmarked)
- IC50 [1]: 454 nM
- IC50 [2]: 172 nM
